Measurements taken from IntAct's records for PubMed 19202075.

B1: Beta-arrestin-1 (Rattus norvegicus (Rat)), P29066 (parent)
chain: MGDKGTRVFKKASPNGKLTVYLGKRDFVDHIDLVDPVDGVVLVDPEYLKERRVYVTLTCAFRYGREDLDVLGLTFRKDLFVANVQSFPPAPEDKKPLTRLQERLIKKLGEHAYPFTFEIPPNLPCSVTLQPGPEDTGKACGVDYEVKAFCAENLEEKIHKRNSVRLVIRKVQYAPERPGPQPTAETTRQFLMSDKPLHLEASLDKEIYYHGEPISVNVHVTNNTNKTVKKIKISVRQYADICLFNTAQYKCPVAMEEADDTVAPSSTFCKVYTLTPFLANNREKRGLALDGKLKHEDTNLASSTLLREGANREILGIIVSYKVKVKLVVSRGGLLGDLASSDVAVELPFTLMHPKPKEEPPHREVPESETPVDTNLIELDTNDDDIVFEDFARQRLKGMKDDKDEEDDGTGSPHLNNR

Variants of: B1
Settings: with src_human SRC

Row | effect of a mutation on the interaction | Variant
1 | decreasing interaction | MGDKGTRVFKKASPNGKLTVYLGKRDFVDHIDLVDPVDGVVLVDPEYLKERRVYVTLTCAFRYGREDLDVLGLTFRKDLFVANVQSFPPAPEDKKPLTRLQERLIKKLGEHAYPFTFEIPPNLPCSVTLQPGPEDTGKACGVDYEVKAFCAENLEEKIHKRNSVRLVIRKVQYAPERPGPQPTAETTRQFLMSDKPLHLEASLDKEIYYHGEPISVNVHVTNNTNKTVKKIKISVRQYADICLFNTAQYKCPVAMEEADDTVAPSSTFCKVYTLTPFLANNREKRGLALDGKLKHEDTNLASSTLLREGANREILGIIVSYKVKVKLVVSRGGLLGDLASSDVAVELPFTLMHPKPKEEPPHREVPESETPVDTNLIELDTNDDDIVFEDFARQRLKGMKDDKDEEDDGTGDPHLNNR [S412D]
